Data taken from patent US8309599B2, “Synthesis of FR901464 and analogs with antitumor activity” (University of Pittsburgh-Of The Commonwealth System of …, priority 2006, dated 2012).

Test system: MCF-7
Assay: cells
Conditions: Homo sapiens, MCF7, 120 h, read-out: GI50 against MCF-7

## CC(=O)O[C@@H](C)/C=C\C(=O)N[C@@H]1C[C@H](C)[C@H](C/C=C(C)/C=C/[C@H]2OC(C)(C)C[C@@]3(CO3)[C@@H]2O)O[C@@H]1C [meayamycin]
  GI50: 40 pM
